High-throughput results deposited in PubChem BioAssay by National Center for Advancing Translational Sciences (NCATS).
p53 reactivation – mutant p53 re-activation in reporter cells. AID 504706. Potency, µM (series often up to 92.2 µM), actives largely listed as activators. actives 0.063% (n = 320,000). H1299 p53-A138V BP100-luciferase reporter, luminescence, 24 h; further: nearly all actives have a fitted effect of over 45% in size
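p53-null H1299 cells stably carrying temperature-sensitive p53-A138V and a BP100-luciferase reporter were pinned with compounds (4-point, 1:5 series) and held 24 hrs at 37 deg C. Luminescence was read 10 min after detection reagent.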
miR-21 reporter – miR-21 reporter, rising signal | HeLa miR-21 FLuc reporter, luciferase, 48 h | Potency, µM (highest dose often 38.3 µM) | 340,000 tested, under 10 active | AID 2288; active = well fitted rising curve with a large enough effect; inconclusive = small, poorly fitted or top-dose-only effect; inactive = no such curve, though single readings can be large or run the other way;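 further: miR-21 action dims this reporter so a rising signal means less miR-21 action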
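Luminescence from a firefly luciferase reporter carrying a miR-21 binding site downstream, stably expressed under a CMV promoter in HeLa cells that make miR-21 endogenously, reports miRNA modulation after 48 h compound exposure up to approximately 40uM final.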
Nrf2 inh – inhibitors of Nrf2 signaling | actives 2.1% (n = 360,000) | AID 504444 | A549 ARE-Fluc reporter, luciferase luminescence, 18-24 h | Potency, µM (series often up to 46 µM), hits mostly inhibitors; further: nearly all actives have a fitted effect of over 60% in size
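Nrf2 activity is the BugLite luminescence, read 15 min after reagent at room temperature, following CellTiter-Fluor cytotoxicity readout (30 min, 37C). Compound titrations were applied for 18-24 h to 5000 A549 ARE_Fluc cells/well in 5% FBS OPTI-MEM.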
Nrf2 ARE act – Nrf2 pathway activation | AREc32 ARE-luciferase reporter (MCF7-derived line), luminescence, 24 h | Potency, µM (series often up to 46.1 µM), usual class: activators | actives 0.31% (n = 410,000); further: nearly all actives have a fitted effect of over 65% in size
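Reporter line AREc32 (ARE-Fluc), seeded overnight in OPTI-MEM with 5% FBS; compound pin-transferred, 24 hr at 37 deg C, 5% CO2; luminescent read-out.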
A549 viability – kills or reduces viability of A549 cells in Nrf2 counter-screen | Potency, µM (doses to about 46 µM), most hits filed as inhibitors | actives 0.16% (n = 390,000) | A549 ARE-Fluc cells, CellTiter-Fluor viability, 18-24 h
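Cytotoxicity counterscreen: CellTiter-Fluor fluorescence was measured in A549 ARE_Fluc cells after 18-24 h of compound exposure in a concentration series. The subsequent BugLite luminescent read reports ARE-luciferase activity.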
ClpP mod – qHTS Assay for Activators of ClpP; ATP-dependent Clp protease proteolytic subunit (Bacillus subtilis (strain 168)), P80244; purified B. subtilis ClpP, FRET peptide cleavage, 20 min; Potency, µM (top dose mostly 57.5 µM); actives 1.9% (n = 340,000); AID 651965, 2013; active means well fitted falling curve with a large enough effect; inconclusive means small, poorly fitted or top-dose-only effect; inactive means no such curve, though single readings can be large or run the other way; further: the source files actives as falling curves though it sought activators and does not explain the sign; nearly all actives have a fitted effect of over 65% in size
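Buffer: 100 mM Tris/HCl pH8, 100 mM KCl, 0.05% low protease BSA, 2.5% glycerol, 0.01% Tween-20. ClpP 10 microg/mL final; 20 min RT; delta FRET normalized to ADEP and DMSO controls.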
Of the large screens only hits and unclear results are named; the others gave an inactive call. In the library only some 3.7% were active in any assay of this set; here they are far more common. Unless noted, the call rests on the fitted dose curve; in most records, active means well fitted curve in the direction sought with a large enough effect; inconclusive means small, poorly fitted or top-dose-only effect, or another doubt; inactive means no such curve, though single readings can be large; an effect the other way counts as inactive or inconclusive.

CCOC(=O)C1Cn2c(nc3c(c2=O)C2(CCCC2)Cc2ccccc2-3)S1 (stereo not given)	Nrf2 inh inconclusive, ClpP mod 28.2µM
CCOC(=O)C1Cn2c(nc3c(c2=O)C(C)(C)Cc2ccccc2-3)S1 (stereo not given)	none
Cn1c(=O)c2c(n3cnnc13)-c1ccccc1CC21CCCC1	none
CCSc1n[nH]c2nc3c(c(=O)n12)C1(CCCC1)Cc1ccccc1-3	ClpP mod 14.1µM
CC(C)Sc1n[nH]c2nc3c(c(=O)n12)C1(CCCC1)Cc1ccccc1-3	none (no result: Nrf2 inh, Nrf2 ARE act, A549 viability, ClpP mod)
CCOC(=O)c1cc(-c2ccccc2)n(CC(=O)N(C)c2ccc(OC)cc2)c1C	none (no result: p53 reactivation, Nrf2 inh)
NC(=O)C1CCN(c2ncnc3c2cnn3-c2cccc(Cl)c2)CC1	none (no result: p53 reactivation, Nrf2 inh)
Cc1ccc(OCC(=O)Nc2nnc(SCc3cc(=O)c4ccccc4[nH]3)s2)cc1	none (no result: p53 reactivation, Nrf2 inh)
Clc1ccc(Nc2ncnc3ccc(Br)cc23)cc1	Nrf2 inh 13µM
Cc1cccc2cc3c(N)c(C(=O)Nc4ccc(N5CCOCC5)cc4)sc3nc12	Nrf2 inh 23.1µM
Nc1c(C(=O)NC2CCCCC2)nsc1C(=O)OCC(=O)NC1CCCCC1	p53 reactivation inconclusive, ClpP mod 25.1µM
Cc1cc(=O)c2ccc(C(F)(F)F)cc2[nH]1	none (no result: ClpP mod)
O=c1cc(C(F)(F)F)[nH]c2ccc(C(F)(F)F)cc12	Nrf2 inh 20.6µM, A549 viability inconclusive
Cc1ccc(OCC(=O)NCC(=O)OCc2cc(=O)n3nc(C(C)C)sc3n2)cc1	none (no result: p53 reactivation)
O=C1/C(=C/c2ccc(O)cc2)COc2ccccc21	p53 reactivation 39.8µM, Nrf2 ARE act inconclusive (no result: ClpP mod)
CCSc1ncc(Cl)c(C(=O)N(Cc2ccc(C(C)(C)C)cc2)C2CCS(=O)(=O)C2)n1 (stereo not given)	Nrf2 inh inconclusive (no result: p53 reactivation)
CCN1/C(=C2/SC(=S)N(C)C2=O)C=Cc2cc(C)ccc21	none (no result: p53 reactivation, miR-21 reporter, ClpP mod)
CCN1C(=O)/C(=C2/C=Cc3cc(C)ccc3N2CC)N(C)C1=S	Nrf2 inh inconclusive, A549 viability 23.1µM
Cc1c(Cl)cccc1NC(=O)CCn1c(=O)c2cccn2c2ccccc21	none (no result: p53 reactivation)
CCn1c(SCC(=O)c2cccs2)nnc1-c1cccs1	p53 reactivation inconclusive, Nrf2 inh inconclusive, Nrf2 ARE act 22.4µM
COc1ccc(-c2noc(CSc3nc4ccccc4[nH]3)n2)cc1OC	Nrf2 inh 20.6µM (no result: p53 reactivation)
CCn1c(SCc2nc(-c3ccc(OC)c(OC)c3)no2)nnc1-c1cccs1	Nrf2 inh 20.6µM
Cc1ccccc1-c1noc(CSc2nc3ccccc3[nH]2)n1	Nrf2 inh 18.4µM (no result: p53 reactivation)
COc1ccc(-c2noc(-c3cccs3)n2)cc1OC	p53 reactivation inconclusive, Nrf2 inh inconclusive, Nrf2 ARE act inconclusive (no result: ClpP mod)
COc1ccccc1-c1noc(CSc2nc3ccc(C)cc3[nH]2)n1	Nrf2 inh inconclusive (no result: p53 reactivation)
Cc1cccc(NC(=O)c2ccc3nc(CCc4ccccc4)oc3c2)c1C	none (no result: p53 reactivation, Nrf2 inh)
Cc1oc2ccc(O)cc2c1C(=O)c1ccc(F)cc1	none (no result: p53 reactivation, miR-21 reporter)
COc1ccc2c(c1)CC(C(=O)NCc1ccc(F)cc1)CO2 (stereo not given)	none (no result: p53 reactivation, Nrf2 inh)
COCCn1c(C)cc(C(=O)COC(=O)c2ccccc2Br)c1C	Nrf2 inh inconclusive
COCCn1c(C)cc(C(=O)COC(=O)c2[nH]c(C)c(C(C)=O)c2C)c1C	Nrf2 inh 23.1µM (no result: miR-21 reporter)
COc1ccccc1OCC(=O)Nc1nnc(-c2ccco2)s1	Nrf2 ARE act 11.2µM
COc1ccc(NC(=O)Nc2nnc(-c3ccco3)s2)cc1	Nrf2 inh inconclusive, Nrf2 ARE act 12.6µM
CCN(CC)CCCNC(=O)CSc1nc2nc(C)c(Cc3ccccc3C)c(C)n2n1	none (no result: p53 reactivation)
COc1cccc2c(=O)cc(C)n(CC(=O)Nc3ccccc3C)c12	Nrf2 inh inconclusive, ClpP mod 12.6µM
O=S(=O)(Nc1cccc(-c2cn3cccnc3n2)c1)c1ccc(-c2ccccc2)cc1	ClpP mod 28.2µM (no result: Nrf2 inh)
Clc1ccc(-c2cn3cccnc3n2)cc1Cl	Nrf2 inh inconclusive, ClpP mod 11.2µM
O=S(=O)(Nc1cccc(-c2cn3cccnc3n2)c1)c1ccccc1	none
C/C(N)=C(/C#N)C(=O)CSc1nnc(SCc2ccc(Cl)cc2)s1	Nrf2 inh 20.6µM
CCOC(=O)c1c(-c2ccccc2)oc2ccc(OCC(O)CNCCN(C)C)cc12 (stereo not given)	miR-21 reporter inconclusive, A549 viability inconclusive, ClpP mod 35.5µM
CCOC(=O)COc1c(-c2ccc(OC)cc2)oc2ccccc2c1=O	ClpP mod 31.6µM
CCOc1ccc(-c2oc3ccccc3c(=O)c2O)cc1OCC	ClpP mod 31.6µM (no result: p53 reactivation)
CCOC(=O)c1c(-c2ccccc2)oc2ccc(OC)cc12	ClpP mod 10µM (no result: Nrf2 inh)
CCc1nn2c(=O)cc(N3C(C)CNCC3C)nc2s1 (stereo not given)	none (no result: p53 reactivation, miR-21 reporter, Nrf2 ARE act, ClpP mod)
COc1ccc(C2Nc3ccccc3C(=O)N2Cc2cccc3ccccc23)cc1COc1ccc(NC(C)=O)cc1 (stereo not given)	Nrf2 inh inconclusive (no result: p53 reactivation, miR-21 reporter, Nrf2 ARE act, ClpP mod)
Cc1cc(C)cc(NS(=O)(=O)c2ccc3c(c2)OCC(C(=O)N2CCCC2)O3)c1 (stereo not given)	none (no result: p53 reactivation)
O=C(C1COc2cc(S(=O)(=O)Nc3ccc(Cl)cc3)ccc2O1)N1CCCC1 (stereo not given)	Nrf2 inh 25.9µM (no result: p53 reactivation)
CCOC(=O)C1=C(C)Nc2sc(C(=O)c3ccc(C)cc3)c(N)c2C1c1ccc(C(=O)OC)cc1 (stereo not given)	ClpP mod 8.91µM
CCOC(=O)C1=C(C)Nc2sc(C(=O)c3ccc(F)cc3)c(N)c2C1c1ccc(C(=O)OC)cc1 (stereo not given)	Nrf2 inh inconclusive, A549 viability inconclusive
COc1cc(C=O)ccc1OCc1cccc(Br)c1	p53 reactivation inconclusive, ClpP mod 25.1µM
CCCCc1cc(=O)oc2cc(C)cc(OC(C)C(=O)NCC3CCC(C(=O)O)CC3)c12 (stereo not given)	none
C=C(Cl)COc1cc(C)cc2oc(=O)cc(CC)c12	ClpP mod 31.6µM
CCCCc1cc(=O)oc2cc(C)cc(O)c12	none
CC(=O)COc1cc(C)cc2oc(=O)c(C)c(C)c12	ClpP mod inconclusive
CCCCc1cc(=O)oc2cc(C)cc(OC(C)C(=O)O)c12 (stereo not given)	ClpP mod 15.8µM
CC(=O)C(C)Oc1cc(C)cc2oc(=O)c(C)c(C)c12 (stereo not given)	ClpP mod 3.16µM
CCCCc1cc(=O)oc2cc(C)c3c(C)coc3c12	A549 viability inconclusive, ClpP mod 28.2µM (no result: p53 reactivation)
Cc1ccc(C(=O)c2oc3ccccc3c2NC(=O)c2cc(-c3ccccc3)on2)cc1F	none (no result: p53 reactivation)
